In paper PMC10072319 (Bioorganic & medicinal chemistry letters, 2023):

Test system: T. b. brucei Lister 427
Assay type: cell-based, Trypanosoma brucei brucei
Conditions: first pass screen at 4 μM

How did the “activity against T. b. brucei, in words” value turn out when `COc1ccc(/C=C/C(=O)CC(=O)/C=C/c2ccc(OC)cc2OC)c(OC)c1` [Compound 9] was run?
The value was “inactive”.
